Laboratory results: article PMC11946465

T1: Finotonlimab
T1 chain 1: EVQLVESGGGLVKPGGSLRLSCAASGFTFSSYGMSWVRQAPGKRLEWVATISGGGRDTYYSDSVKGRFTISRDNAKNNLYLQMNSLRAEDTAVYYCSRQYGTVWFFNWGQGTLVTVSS
T1 chain 2: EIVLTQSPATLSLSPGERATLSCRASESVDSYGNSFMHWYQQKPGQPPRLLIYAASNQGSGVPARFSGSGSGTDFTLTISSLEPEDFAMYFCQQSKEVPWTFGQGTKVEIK


Molecular target: T1, Finotonlimab
Assay: ELISA (mutation study, epitope mapping)
Details: chain shown with the change;; parent: est. 100; read off a plot

Binder	percent of parent
PD-1 wt protein, Q15116 D85A (protein) LDSPDRPWNPPTFSPALLVVTEGDNATFTCSFSNTSESFVLNWYRMSPSNQTDKLAAFPEARSQPGQDCRFRVTQLPNGRDFHMSVVRARRNDSGTYLCGAISLAPKAQIKESLRAELRVTERRAEVPTAHPSPSPRPAGQFQTLV	35%
PD-1 wt protein, Q15116 R30A (protein) LDSPDAPWNPPTFSPALLVVTEGDNATFTCSFSNTSESFVLNWYRMSPSNQTDKLAAFPEDRSQPGQDCRFRVTQLPNGRDFHMSVVRARRNDSGTYLCGAISLAPKAQIKESLRAELRVTERRAEVPTAHPSPSPRPAGQFQTLV	95%
PD-1 wt protein, Q15116 K78A (protein) LDSPDRPWNPPTFSPALLVVTEGDNATFTCSFSNTSESFVLNWYRMSPSNQTDALAAFPEDRSQPGQDCRFRVTQLPNGRDFHMSVVRARRNDSGTYLCGAISLAPKAQIKESLRAELRVTERRAEVPTAHPSPSPRPAGQFQTLV	85%
PD-1 wt protein, Q15116 E136A; R139A (protein) LDSPDRPWNPPTFSPALLVVTEGDNATFTCSFSNTSESFVLNWYRMSPSNQTDKLAAFPEDRSQPGQDCRFRVTQLPNGRDFHMSVVRARRNDSGTYLCGAISLAPKAQIKASLAAELRVTERRAEVPTAHPSPSPRPAGQFQTLV	100%
PD-1 wt protein, Q15116 D29A; R30A (protein) LDSPAAPWNPPTFSPALLVVTEGDNATFTCSFSNTSESFVLNWYRMSPSNQTDKLAAFPEDRSQPGQDCRFRVTQLPNGRDFHMSVVRARRNDSGTYLCGAISLAPKAQIKESLRAELRVTERRAEVPTAHPSPSPRPAGQFQTLV	100%
PD-1 wt protein, Q15116 N66A (protein) LDSPDRPWNPPTFSPALLVVTEGDNATFTCSFSNTSESFVLAWYRMSPSNQTDKLAAFPEDRSQPGQDCRFRVTQLPNGRDFHMSVVRARRNDSGTYLCGAISLAPKAQIKESLRAELRVTERRAEVPTAHPSPSPRPAGQFQTLV	87%
